The text below walks through data of patent US8404670B2 (Sunovion Pharmaceuticals Inc., priority 2009, dated 2013).

Protein sequences, listed by entry. Tags and fused reporters are not part of them.
UniProt Q9Y5N1, whole entry: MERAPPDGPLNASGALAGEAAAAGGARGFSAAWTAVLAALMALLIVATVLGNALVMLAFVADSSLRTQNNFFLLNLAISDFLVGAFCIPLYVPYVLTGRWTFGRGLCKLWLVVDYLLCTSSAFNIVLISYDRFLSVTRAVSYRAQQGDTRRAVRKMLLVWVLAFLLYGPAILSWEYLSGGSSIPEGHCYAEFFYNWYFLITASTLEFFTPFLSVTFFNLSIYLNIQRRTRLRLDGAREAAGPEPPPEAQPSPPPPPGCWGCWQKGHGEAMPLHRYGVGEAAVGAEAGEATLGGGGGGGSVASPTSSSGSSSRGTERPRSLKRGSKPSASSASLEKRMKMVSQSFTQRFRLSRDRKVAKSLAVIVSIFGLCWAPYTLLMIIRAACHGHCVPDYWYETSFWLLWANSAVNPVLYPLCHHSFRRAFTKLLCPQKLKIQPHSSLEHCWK

By IC50 is commonly meant the midpoint of a concentration-inhibition curve.

This test addresses human histamine H3 receptor (Homo sapiens, UniProt Q9Y5N1). Nature of the test: H3 GTPγS assay (SPA method), histamine H3 in vitro assay. To be noted: read-out: Potency (functional potency as indicated by IC50); GTPγ[35S] binding to membranes of cells expressing human H3; antagonist mode with R-γ-Me-Histamine at EC80 (30 nM); in one embodiment HCl salts tested; tested form: HCl. As for the experimental part: H3 GTPγS assay (SPA method) was performed at EuroScreen (Belgium, ES-392-C) using conventional methods. Briefly, cells expressing the human histamine H3 receptor were homogenized in 15 mM Tris-HCl pH 7.5, 2 mM MgCl2, 0.3 mM EDTA, and 1 mM EGTA. Membranes were washed twice in the above tris buffer, collected by centrifugation (40,000×g, 25 min), and re-suspended in 75 mM Tris-HCl pH 7.5, 12.5 mM MgCl2, 0.3 mM EDTA, 1 mM EGTA, and 250 mM sucrose. Membranes were frozen in liquid nitrogen until use. On the day of the assay, membranes were thawed and diluted in assay buffer (20 mM HEPES pH 7.4, 100 mM NaCl, 10 μg/ml saponin, 1 mM MgCl2) to give 500 μg/ml and mixed (v/v) with GDP in assay buffer for a final GDP concentration of 10 μM and incubated on ice for at least 15 min. PVT-WGA beads (Amersham, RPNQ001) were diluted in assay buffer at 50 mg/mL and mixed with GTPγ[^35S] […] The reaction was started by adding 50 μL of test compound, 20 μL of the membranes:GDP mix, 10 μL of buffer, and 20 μL of the GTPγ[^35S]:beads mix in a 96 well plate Optiplate™ (PerkinElmer, 6005299) covered with topseal (TopCount™, PerkinElmer), mixed with an orbital shaker for 2 min, incubated for 1 hour at room temperature, centrifuged for 10 min at 2000 rpm, incubated for 1 h at room temperature, and counted for 1 min in a TopCount™ reader (PerkinElmer). […]
In general terms: Binding of GTPγS marks nucleotide exchange on a G protein.

On to `Cc1nccn1-c1ccc2c(c1)nc1n2CCN(C2CCC2)CC1`, for which the IC50 is below 10 nM.
